The conditions of data set [1]: cited from earlier work.
Data set [2] relates to 293A cells. It is filed as cell-based, Human. As to conditions: 10 μM, cell growth rate and CMV-GFP expression. The protocol: To study whether novobiocin, the monomer of coumermycin, is able to switch off the coumermycin-induced expression of luciferase, various concentrations of novobiocin were incubated together with 5 nM coumermycin in 293A cells for 40 hr. […] At a concentration of 5 μM novobiocin, however, over 98% of the coumermycin-induced luciferase expression was suppressed (FIG. 5A).

For data set [3], the system named is K562 wild type cells. The data set is described as follows: Flow cytometric analysis of apoptosis in K562 wild type (parental) cells. As to conditions: 5 nM coumermycin, 36 hr. It is filed as cell-based, Human. From the text:
It has been reported that high-level expression of Bax (Bcl2-associated X protein) elicits apoptosis in a variety of human cancer cells (17). In malignant hematopoietic cells, including k562, Bax overexpression leads to apoptosis of the transfected cells through cytochrome C release (18). To evaluate the tightness of gene expression regulated by the chimeric transactivator, the apoptotic Bax gene was cloned into the transgene-expression cassette from the two-plasmid induction system previously described. […] Stable clones harboring the both plasmids were isolated and characterized following induction.
(Flow cytometry measures light scatter and fluorescence of single cells or particles in a stream.)

The conditions of data set [4]: cited from earlier work. The source holds these as a separate data set.

Turning to coumermycin, the in vivo half-life in data set [1] is 6 h. Also, the serum half-life in data set [1] (serum, in vivo) was 5.5 h. For the same substance, the cellular toxicity result in data set [2] is “do not exert any detectable cellular toxicity”. The “cell death in parental cells” value in data set [3] is “did not induce additional cell death”. In addition, the “toxicity in extensive animal testing” value in data set [4] (concentrations effectively exerting antibacterial activity) is reported as “no overt toxicity”. For the same substance, the “dose causing cellular toxicity in vivo” value in data set [4] (in vivo) is 20 µM.
